Target: excitatory amino acid transporter 2 (mouse, endogenous) (mouse (endogenous in primary astrocytes and brain)) (UniProt P43006)
Assay: proximity ligation; cultured primary mouse astrocytes treated with human RBC-EVs at 37 °C for 3 h, fixed; antibody against the C-terminus (intracellular domain) of EAAT2, or against EAAT1, and Syn211 against human α-syn; untreated and dynasore-treated astrocytes as controls

percent of astrocytes with proximity ligation products (% of astrocytes): 40
Substance: α-synuclein (human, endogenous; carried in erythrocyte-derived extracellular vesicles, and in human brain) (from UniProt P37840 1-140) (natural protein)
